## Antibody variant affinities, Ab-14 heavy chain, assay B

Reference: Li et al. 2023, doi:10.1038/s41467-023-39022-2. File: FLAb, binding data.

The target is the same throughout: PDVDLGDISGINAS, from the HR2 region of SARS-CoV-2 spike.

The variants keep the light chain, the linker and the frameworks of Ab-14 (scFv order VH, three GGGGS repeats, VL).
VH: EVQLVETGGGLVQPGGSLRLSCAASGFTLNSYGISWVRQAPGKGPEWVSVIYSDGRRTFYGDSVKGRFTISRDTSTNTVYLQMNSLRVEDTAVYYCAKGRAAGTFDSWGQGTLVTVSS
VL: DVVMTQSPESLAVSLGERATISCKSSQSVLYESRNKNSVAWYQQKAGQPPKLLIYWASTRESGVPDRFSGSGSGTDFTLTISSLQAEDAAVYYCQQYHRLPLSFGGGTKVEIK

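Phage display of a naive human antibody library on the peptide gave the parent. The variants were designed computationally from a first round of random CDR variants and then made and measured. Their group label is 14H_Rand (Rand: our label for a block that the file lists under HC and that is probably the random mutants of the ten best first-round binders). The scFvs were displayed on barcoded MATa yeast, the peptide on MATalpha yeast. Pairs that bind mate more often; barcode pairs of the diploids are counted by sequencing. Read counts were normalised to the haploid input and turned into Kd by a linear fit to BCL2-family pairs of known affinity, for each replicate. There are six technical replicates.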

Each variant's VH is given in full. Values are log10 of the apparent Kd in nM; lower means stronger binding. Replicates are averaged; those with no signal do not enter the mean. Where no diploid with the target was found in that replicate, the entry reads "nd": below detection, most likely a poor binder, though not proof of it. In the paper, a design with two or fewer of six values counts as a poor binder.

{"VH": "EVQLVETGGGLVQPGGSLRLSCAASGFTLNSYSISWVRQAPGKGPEWVSVIYSDGRRTFYDDSVKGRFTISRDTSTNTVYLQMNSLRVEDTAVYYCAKGQLAGTFDFWGQGTLVTVSS", "log10 Kd (nM) by replicate": "nd / nd / nd / nd / nd / nd", "log10 Kd (nM), mean": "nd", "control signals": "0/18"}
{"VH": "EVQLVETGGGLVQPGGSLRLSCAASGFTLWDYGISWVRQAPGKGPEWVSVIYEDGRRTQYIDSNKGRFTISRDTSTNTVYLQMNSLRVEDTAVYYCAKGRAAGTFDIWGQGTLVTVSS", "log10 Kd (nM) by replicate": "nd / nd / nd / nd / nd / nd", "log10 Kd (nM), mean": "nd", "control signals": "0/18"}
{"VH": "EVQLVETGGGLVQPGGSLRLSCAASGFTLEPYGISWVRQAPGKGPEWVSVIYSDGRRTFYGDSYKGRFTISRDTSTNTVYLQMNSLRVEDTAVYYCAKGRAAVFFDQWGQGTLVTVSS", "log10 Kd (nM) by replicate": "nd / nd / nd / nd / nd / nd", "log10 Kd (nM), mean": "nd", "control signals": "0/18"}
{"VH": "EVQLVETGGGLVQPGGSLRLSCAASGFTLNSYGWSWVRQAPGKGPEWVSVIYSDGRHTFYDDSVKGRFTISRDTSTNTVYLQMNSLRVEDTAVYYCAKGQLAGTFDSWGQGTLVTVSS", "log10 Kd (nM) by replicate": "nd / nd / nd / nd / nd / nd", "log10 Kd (nM), mean": "nd", "control signals": "0/18"}
{"VH": "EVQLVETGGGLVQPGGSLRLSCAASGFTLNDYGISWVRQAPGKGPEWVSVIYSDGRRTKYGDSVKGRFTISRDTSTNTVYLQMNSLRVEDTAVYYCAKGRAALTFITWGQGTLVTVSS", "log10 Kd (nM) by replicate": "nd / nd / nd / nd / nd / nd", "log10 Kd (nM), mean": "nd", "control signals": "1/18 (1.51)"}
{"VH": "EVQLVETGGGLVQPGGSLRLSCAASGFTLDSYGISWVRQAPGKGPEWVSVIHSDGRRTRYGDSVKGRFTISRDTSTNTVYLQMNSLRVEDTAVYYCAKGRCAGTALSWGQGTLVTVSS", "log10 Kd (nM) by replicate": "nd / nd / nd / nd / nd / nd", "log10 Kd (nM), mean": "nd", "control signals": "0/18"}
{"VH": "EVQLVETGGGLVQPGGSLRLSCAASGFTLNDYGISWVRQAPGKGPEWVSVIYSDSRRTDYIDSVKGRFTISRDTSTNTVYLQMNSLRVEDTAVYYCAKGRAAGTFDSWGQGTLVTVSS", "log10 Kd (nM) by replicate": "nd / nd / 1.13 / nd / nd / nd", "log10 Kd (nM), mean": "1.13", "control signals": "1/18 (1.10)"}
{"VH": "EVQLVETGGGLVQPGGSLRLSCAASGFDLNSYGISWVRQAPGKGPEWVSVIYSDGRRTFYGWSVKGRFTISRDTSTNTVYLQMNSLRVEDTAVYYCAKGRAAGWFNSWGQGTLVTVSS", "log10 Kd (nM) by replicate": "nd / nd / nd / nd / nd / nd", "log10 Kd (nM), mean": "nd", "control signals": "0/18"}
{"VH": "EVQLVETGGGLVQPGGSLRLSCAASGFTLNDYGISWVRQAPGKGPEWVSVIYSDGRRTQYIDWVKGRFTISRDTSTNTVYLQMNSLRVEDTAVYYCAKGRAAGTFDSWGQGTLVTVSS", "log10 Kd (nM) by replicate": "nd / nd / nd / nd / nd / nd", "log10 Kd (nM), mean": "nd", "control signals": "0/18"}
{"VH": "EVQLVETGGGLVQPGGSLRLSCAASGDTLNSYGISWVRQAPGKGPEWVSVIYSDGRRTFYSDSVKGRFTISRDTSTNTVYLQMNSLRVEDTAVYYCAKGRAGGTFDYWGQGTLVTVSS", "log10 Kd (nM) by replicate": "nd / nd / nd / nd / nd / nd", "log10 Kd (nM), mean": "nd", "control signals": "0/18"}
{"VH": "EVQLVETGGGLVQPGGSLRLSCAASGFTLNDYGISWVRQAPGKGPEWVSVIYSDGRRTFYGDSVKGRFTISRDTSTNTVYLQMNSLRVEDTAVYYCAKGRAALTVIEWGQGTLVTVSS", "log10 Kd (nM) by replicate": "nd / 0.94 / 0.72 / 1.31 / 1.06 / 2.42", "log10 Kd (nM), mean": "1.29", "control signals": "0/18"}
{"VH": "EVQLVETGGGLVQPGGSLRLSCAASGFTLNDYGISWVRQAPGKGPEWVSVIYHDGGRTQPGDSVKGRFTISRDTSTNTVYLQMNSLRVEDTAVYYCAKGRAALTFISWGQGTLVTVSS", "log10 Kd (nM) by replicate": "nd / nd / nd / nd / nd / nd", "log10 Kd (nM), mean": "nd", "control signals": "0/18"}
{"VH": "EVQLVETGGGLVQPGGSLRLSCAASGFTLHQYGISWVRQAPGKGPEWVSVIYSDGRRTFESDSVKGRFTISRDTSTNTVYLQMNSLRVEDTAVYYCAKGRAAGFFDSWGQGTLVTVSS", "log10 Kd (nM) by replicate": "nd / nd / 0.70 / nd / 0.81 / nd", "log10 Kd (nM), mean": "0.75", "control signals": "0/18"}
{"VH": "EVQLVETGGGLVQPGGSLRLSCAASGFTYDSYGISWVRQAPGKGPEWVSVIYSDGRRTFYGDSVKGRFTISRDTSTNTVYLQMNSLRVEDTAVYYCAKGRGPGTALSWGQGTLVTVSS", "log10 Kd (nM) by replicate": "nd / nd / nd / nd / nd / nd", "log10 Kd (nM), mean": "nd", "control signals": "0/18"}
{"VH": "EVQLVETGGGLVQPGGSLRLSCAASGFDLNSYCISWVRQAPGKGPEWVSVIYSDGRRTFYGDSVKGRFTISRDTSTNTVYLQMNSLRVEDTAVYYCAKGRAAGWFNSWGQGTLVTVSS", "log10 Kd (nM) by replicate": "nd / nd / nd / nd / nd / nd", "log10 Kd (nM), mean": "nd", "control signals": "0/18"}
{"VH": "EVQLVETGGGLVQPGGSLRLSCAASGFTLNEYGISWVRQAPGKGPEWVSVIYSDGRRTFYGDALKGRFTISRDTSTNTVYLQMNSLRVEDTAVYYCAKGRAAVTFDQWGQGTLVTVSS", "log10 Kd (nM) by replicate": "nd / nd / nd / nd / nd / nd", "log10 Kd (nM), mean": "nd", "control signals": "0/18"}
{"VH": "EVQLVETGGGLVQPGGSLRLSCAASGCTLNEGGISWVRQAPGKGPEWVSVIYSDGRRTFYGDSVKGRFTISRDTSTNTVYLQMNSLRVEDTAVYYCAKGRAAVTFRQWGQGTLVTVSS", "log10 Kd (nM) by replicate": "nd / nd / nd / nd / nd / nd", "log10 Kd (nM), mean": "nd", "control signals": "0/18"}
{"VH": "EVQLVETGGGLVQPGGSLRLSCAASGFILNDYGISWVRQAPGKGPEWVSVIYSDGRRTNYIMSVKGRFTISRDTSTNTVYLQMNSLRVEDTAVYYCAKGRAAGTFDSWGQGTLVTVSS", "log10 Kd (nM) by replicate": "nd / nd / nd / nd / nd / nd", "log10 Kd (nM), mean": "nd", "control signals": "0/18"}
{"VH": "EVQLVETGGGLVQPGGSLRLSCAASGFTLNDFGISWVRQAPGKGPEWVSVIYSDGRRTFYGDFVKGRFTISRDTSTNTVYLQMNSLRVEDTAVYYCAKGRAALTFISWGQGTLVTVSS", "log10 Kd (nM) by replicate": "0.36 / 0.78 / 1.31 / 1.63 / 0.93 / 0.55", "log10 Kd (nM), mean": "0.93", "control signals": "1/18 (1.51)"}

The closing 2 entries, repeated:

VH,log10 Kd (nM) by replicate,"log10 Kd (nM), mean",control signals
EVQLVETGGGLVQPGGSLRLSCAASGFILNDYGISWVRQAPGKGPEWVSVIYSDGRRTNYIMSVKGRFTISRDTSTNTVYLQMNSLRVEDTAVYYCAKGRAAGTFDSWGQGTLVTVSS,nd / nd / nd / nd / nd / nd,nd,0/18
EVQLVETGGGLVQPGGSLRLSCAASGFTLNDFGISWVRQAPGKGPEWVSVIYSDGRRTFYGDFVKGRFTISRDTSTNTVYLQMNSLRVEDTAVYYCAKGRAALTFISWGQGTLVTVSS,0.36 / 0.78 / 1.31 / 1.63 / 0.93 / 0.55,0.93,1/18 (1.51)

A sequence measured in both rounds can read differently, since the two assays cover different ranges. Empty control strains, which show no peptide, gave a signal in 1% of pairings with all heavy chain designs; the median was 2.08 and 95% of these signals were weaker than 0.84. No background was subtracted. For each scFv, signals with the empty controls are counted beside the result, with their mean in brackets. The parent sequence was in this pool as ten entries: three were never detected, three once, and four in most replicates, with averages from 0.34 to 2.37.